# Laboratory results as given in patent publication US20160309764A1, “FOOD COMPOSITION COMPRISING FERROUS PICOLINATE” (NESTEC S.A., priority 2013, published 2016).
# What was measured:
# [1] = Colour difference of iron fortified strawberry-banana yoghurt after flash pasteurization versus yoghurt with no iron salts (CIELAB); format: physicochemical; details: approx. 0.8 mg iron per 100 g, pasteurized at 105° C. for 2 minutes
# Method: Commercial yoghurt, Nestlé Jogolino™ Strawberry/Banana yoghurt containing 15% banana puree and 10% strawberry puree was iron fortified by the addition of different iron salts to 5 kg yoghurt as reported in the table below. The amounts were chosen to provide approximately 0.8 mg iron per 100 g yoghurt. […] Colour measurements were performed in 1×1 cm polystyrene cuvettes using an X-Rite ColorEye 7000A colorimeter. The colorimeter was set up with a D65 light source, 10 degree observer angle and with specular component included. The colour difference between the yoghurt with no iron salts and the iron fortified yoghurt was measured for each iron salt and expressed as ΔEab* using the CIELAB colour scale.
# [2] = Colour change of fortified pasteurized yoghurts on storage at 37° C. versus colour immediately after pasteurization (CIELAB); format: physicochemical; details: stored at 37° C.
substance,measurement,setting,value
ferric pyrophosphate [Fe4(P2O7)3 × H2O],ΔEab*,[1],3.43
same,ΔEab* day 7,"[2]; day 7, versus colour immediately after pasteurization",1.09
same,ΔEab* day 30,"[2]; day 30, versus colour immediately after pasteurization",3.61
same,ΔEab* day 60,"[2]; day 60, versus colour immediately after pasteurization",6.21
same,ΔEab* day 120,"[2]; day 120, versus colour immediately after pasteurization",10.23
